Source: PubChem BioAssay
Shown are actives, neighbours in structure and some others; about 1.5% of the full set was active somewhere.
miR-122 sensor: miR-122 Renilla sensor signal increase in Huh7, primary screen, miR-122 inhibitor project, cell-based, single point, plate reader. Huh7 miR-122 Renilla luciferase sensor, 48 h; neutral wells = 0, positive control = 100. activation (reporter increase), % at 12.5 µM. 0.3% of 340,000 active. AID 602342, 2012;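 active = mean replicate activation score at least 90 and every replicate individually at or above 90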;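 also: higher luciferase means less miR-122 activity so hits act as miR-122 inhibitors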
PGC1a acetyl inh: inhibitors of PGC1a acetylation signal, primary screen, cell-based, U2OS, AlphaScreen, inhibitor mode. AlphaScreen anti-acetyl-lysine; with virally co-expressed GCN5 acetyltransferase. inhibition, % at 15.6 µM. 0.17% of 350,000 active. AID 651687, 2012;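 active = every replicate shows inhibition of at least 40%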
FN deposition inh: inhibitors of fibronectin matrix deposition, primary screen, AH1F cells, Alexa488-fibronectin fluorescence, plate reader. AH1F fibroblasts, overnight. inhibition, % at 12.6 µM. 0.086% of 350,000 active;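 active = mean inhibition across replicates of 30% or more, regardless of how many single replicates reach that level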
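Material: AH1F fibroblast monolayer depositing Alexa488-labelled fibronectin into matrix | Input: 10000 AH1F cells/well | Medium: DMEM plus 2% serum, read in PBS | Reagent: Alexa488-fibronectin, 24 nM final in well | Compound dosing: One dose per compound, pinned | Schedule: 1 h adhesion, overnight exposure | Measured by: Fluorescence at 485 nm excitation, 525 nm emission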
Cneo AK release: Cryptococcus neoformans cell lysis inducers, primary screen, AK release luminescence, single concentration; C. neoformans lysis, adenylate kinase release luminescence, 4 h; normalised: neutral wells 0, clomiphene wells 100; lysis activity, % at 15 µM; 0.2% of 360,000 active; AID 651654, 2012;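 active = mean lysis activity across replicates of at least 80%, whatever share of replicates individually reach that level; inactive = mean lysis activity below 80%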
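Assay system: Cryptococcus neoformans yeast cells / Dosing: single-point compound dose / Timing: 4 h at 37 °C static, read 1 h later / Measured by: luminescence of released adenylate kinase using an AK detection reagent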
HIV Env fusion: inhibitors of HIV-1 Env-driven cell-cell fusion, primary screen, HeLa-JRFL effector, CEM21 target cells, luciferase. inhibition, % at 12.3 µM. 1.1% of 360,000 active. AID 651610, 2012;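 active = mean replicate inhibition score of at least 50 and every replicate individually at or above 50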
Yeast UUG start: alters start codon recognition fidelity in yeast. S. cerevisiae UUG-firefly luciferase reporter, luminescence/redox ratio. 350,000 tested, 0.13% active. activity score, % at 18.7 µM. AID 602363;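 active means replicate mean at a twofold rise or more, about +100% in these data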;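 further: firefly luciferase made from a UUG start codon reports start codon fidelity; reporter light over untreated wells divided by growth signal over untreated wells; some hits fall short of that in this replicate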
Hits are given with their value; n = inactive; x = not tested or not shown; [ ] = remark or other dose.

SMILES	miR-122 sensor	PGC1a acetyl inh	FN deposition inh	Cneo AK release	HIV Env fusion	Yeast UUG start
CC(=O)N1C=CN(C(C)=O)C(c2cn(C)c3ccccc23)C1c1cn(C)c2ccccc12 (stereo not given)	n	n	x	n	x	n
CCOc1ccc(CC(=O)Nc2sc(Cc3ccccc3)cc2C(N)=O)cc1OCC	n	n	x	n	x	n
Cc1c(NC(=O)C(C)N2C(=O)NC3(CCC(C)CC3)C2=O)c(=O)n(-c2ccccc2)n1C (stereo not given)	x	n	n	x	n	x
CS(=O)(=O)N1CCN(c2ccc(NC(=S)NC(=O)c3ccccc3[N+](=O)[O-])cc2)CC1	n	n	n	x	n	x
CCCNC(=O)C[C@@H]1CC[C@H]2[C@H](COc3ccc(NC(=O)Cc4cccs4)cc3C(=O)N2C)O1	207[16.7 µM]	n	n	n	n	n
CCCNC(=O)C[C@@H]1CC[C@@H]2[C@H](COc3ccc(NC(=O)Cc4cccs4)cc3C(=O)N2C)O1	n	n	n	n	n	n
CCCNC(=O)C[C@H]1CC[C@H]2[C@H](COc3ccc(NC(=O)Cc4cccs4)cc3C(=O)N2C)O1	167[16.7 µM]	n	n	n	n	n
CCNC(=O)C[C@H]1CC[C@@H]2[C@@H](COc3ccc(NC(=O)Cc4cccs4)cc3C(=O)N2C)O1	n	n	n	n	65[16.7 µM]	n
CCCNC(=O)C[C@H]1CC[C@@H]2[C@@H](COc3ccc(NC(=O)c4cccc(C(F)(F)F)c4)cc3C(=O)N2C)O1	n	n	n	n	65[16.7 µM]	n
COCCn1c(SCC(=O)Nc2cccc(C(=O)OC)c2)nc2ccccc2c1=O	n	n	x	n	n	n
CCCNC(=O)C[C@H]1CC[C@@H]2[C@@H](COc3ccc(NC(=O)CCC)cc3C(=O)N2C)O1	n	n	n	n	n	n
CCCNC(=O)C[C@@H]1CC[C@@H]2[C@@H](COc3ccc(NC(=O)CCC)cc3C(=O)N2C)O1	n	n	n	105	n	n
O=C(NC[C@@H]1[C@H](c2ccccc2)[C@@H](CO)N1C(=O)Cc1cccnc1)C1CCC1	n	n	x	84	x	n
O=C(NC[C@H]1N[C@H](CO)[C@@H]1c1ccccc1)C1CCCC1	125[16.7 µM]	n	x	n	x	n
O=C(NC[C@H]1[C@@H](c2ccccc2)[C@H](CO)N1C(=O)Cc1cccnc1)C1CCC1	n	n	x	n	x	n
CCCNC(=O)N1[C@H](C#N)[C@H](c2ccc(-c3cccc(OC)c3)cc2)[C@@H]1CO	x	n	x	n	58[16.7 µM]	n
CC(=O)N1[C@H](CNC(=O)C2CC2)[C@@H](c2ccc(-c3ccccc3)cc2)[C@@H]1CO	200[16.7 µM]	n	n	n	x	n
CCC(=O)N1[C@H](CO)[C@H](c2ccc(-c3ccccc3)cc2)[C@H]1CNC(=O)C1CC1	x	n	n	x	x	x
O=C(CCCOC(=O)c1ccc(O)cc1O)c1ccccc1	n	n	n	n	x	n
CC(=O)N1[C@H](CO)[C@H](c2ccc(-c3ccccc3)cc2)[C@@H]1CNC(=O)C1CC1	n	n	n	105	x	n
CC(=O)N1[C@@H](CO)[C@H](c2ccc(-c3ccc(F)cc3)cc2)[C@@H]1CNC(=O)C1CC1	n	n	n	n	x	n
CCCNC(=O)N1[C@@H](CO)[C@@H](c2ccc(-c3ccccc3)cc2)[C@@H]1CNC(C)=O	n	n	n	88	x	n
Cc1ccccc1S(=O)(=O)N1[C@@H]2CNC[C@H]1C2c1ccc(-c2ccccc2)cc1 (stereo not given in full)	x	n	n	x	x	x
Oc1ccc(C[C@H]2CNC(=S)N2C[C@H]2CCCN2C[C@H](Cc2ccccc2)N2C[C@H](Cc3ccccc3)N(CC3CCCCC3)C2=S)cc1	x	x	n	x	82	x
CC(C)C[C@H]1CNC(=S)N1CC1CCCN1C[C@H](Cc1ccccc1)N1C[C@H](Cc2ccc(O)cc2)N(CC2CCCCCC2)C1=S (stereo not given in full)	n	51	x	n	n	n
O=c1cnc(-c2ccc(Cl)cc2)cn1O	x	x	n	x	n	x
